Target: T1, mouse Smoothened receptor (Mus musculus, UniProt P56726)
T1 construct: expressed in transfected cells; host or cells: HEK293 cells, transiently transfected with Fugene6
Test: Competition with bodipycyclopamine binding on HEK293 cells transfected with mouse Smoothened
Details: 5 nM bodipycyclopamine, 2 hours at 37° C., read-out: IC50 (concentration which inhibits 50% of the bodipycyclopamine binding)

Protein sequences, listed by entry. Tags and fused reporters are not part of them. Residues count along the entry.
UniProt P56726, 33-793: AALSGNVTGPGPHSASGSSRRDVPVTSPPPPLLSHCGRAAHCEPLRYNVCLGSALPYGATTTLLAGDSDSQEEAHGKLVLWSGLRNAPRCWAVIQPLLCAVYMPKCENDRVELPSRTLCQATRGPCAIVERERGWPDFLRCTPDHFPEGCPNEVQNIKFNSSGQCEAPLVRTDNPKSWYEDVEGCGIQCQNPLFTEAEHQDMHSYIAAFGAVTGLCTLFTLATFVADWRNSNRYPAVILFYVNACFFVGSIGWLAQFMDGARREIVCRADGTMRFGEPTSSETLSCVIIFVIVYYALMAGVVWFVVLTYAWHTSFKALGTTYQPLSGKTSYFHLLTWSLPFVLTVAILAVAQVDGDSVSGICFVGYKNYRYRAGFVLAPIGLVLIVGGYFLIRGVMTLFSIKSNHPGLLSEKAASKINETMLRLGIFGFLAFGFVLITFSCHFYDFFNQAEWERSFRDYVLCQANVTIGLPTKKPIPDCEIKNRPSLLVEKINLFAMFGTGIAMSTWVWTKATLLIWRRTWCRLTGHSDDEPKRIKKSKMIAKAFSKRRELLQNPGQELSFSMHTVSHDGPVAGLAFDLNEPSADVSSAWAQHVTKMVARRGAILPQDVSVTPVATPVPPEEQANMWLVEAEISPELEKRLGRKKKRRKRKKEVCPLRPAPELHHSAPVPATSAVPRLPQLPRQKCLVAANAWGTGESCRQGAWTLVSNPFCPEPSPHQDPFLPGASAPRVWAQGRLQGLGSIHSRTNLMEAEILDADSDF

Substance: cyclopamine [reference compound]
- IC50: 30 to 300 nM
